The source of these data is patent publication US20030104974A1, “Dual inhibitorsof PDE 7 and PDE 4” (priority 2001, published 2003).

Protein sequences, listed by entry. Tags and fused reporters are not part of them. Lines headed by an entry give the natural chain unless they say otherwise; changes in a name come on top.
UniProt Q13946: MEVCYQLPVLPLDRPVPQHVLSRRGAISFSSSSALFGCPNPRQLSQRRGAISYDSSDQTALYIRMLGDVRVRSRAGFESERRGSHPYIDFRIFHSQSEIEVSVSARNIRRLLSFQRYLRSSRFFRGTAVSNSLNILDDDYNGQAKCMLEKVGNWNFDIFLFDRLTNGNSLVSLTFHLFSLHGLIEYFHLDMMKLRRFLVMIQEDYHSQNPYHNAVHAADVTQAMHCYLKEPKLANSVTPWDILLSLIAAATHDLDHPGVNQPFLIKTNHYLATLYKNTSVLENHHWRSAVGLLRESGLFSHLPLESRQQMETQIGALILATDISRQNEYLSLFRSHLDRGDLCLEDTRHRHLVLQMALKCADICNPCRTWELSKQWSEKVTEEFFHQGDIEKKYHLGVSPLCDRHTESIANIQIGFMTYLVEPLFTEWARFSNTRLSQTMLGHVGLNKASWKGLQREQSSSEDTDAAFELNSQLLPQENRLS

The structures appear in SMILES notation.

This assay addresses T1, PDE7 (Homo sapiens, UniProt Q13946).
T1 construct: endogenous in cells; host or cells: Hut78 cells (crude lysate)
Nature of the assay: SPA assay for cAMP, PDE7 in Hut78 cell lysate treated with Zardaverine. Format: biochemical. The following applies: ratio of PDE4 and PDE7 IC50. Here is the method:
Hut78 cells were grown in 10% FCS in Iscoves Modified Dulbecco's Medium (Gibco BRL-Life Technologies, Grand Island, N.Y.) with antibiotics. Cells were centrifuged and resuspended in four volumes of [40 mM Tris (pH 7.5)/50 μM EDTA/200 μM PMSF with a cocktail of Protease inhibitors (Boehringher Mannheim, Indianapolis, Ind.)] at 4 C. Cells were homogenized using a Virtis homogenizer, and the lysate was centrifuged twice for 15 min at 15,000×g. Glycerol was added to a final volume of 50% for storage at −20C.
Inhibition of PDE activity in Hut78 cell lysate was determined using an SPA specific for cAMP (Amersham Pharmacia Biotech, Buckinghamshire, UK) according to the manufacturers instructions with minor modifications. Enzyme assays were performed at room temperature in the presence of 50 mM Tris HCl, pH7.5, containing 8.3 mM MgCl2, 1.7 mM EGTA and 0.5 mg/mL BSA. Each assay was performed in a 100 μL reaction volume in 96 well microtitre plates containing the above buffer, 0.3 ul of Hut78 cell lysate treated with 2 uM Zardaverine to inhibit PDE3 and PDE4, 0.05 uCi of [5′,8-3H] Adenosine 3′,5′-cyclic phosphate as an ammonium salt for 20 min. The reaction was terminated by the addition of 50 μl PDE SPA beads (1 mg) water with 10 mM cold cAMP (Sigma, St. Louis Mo.). […]

In the case of `CCOC(=O)c1sc(Nc2nc(N3CCC(O)CC3)cc(N3CCC(O)CC3)n2)nc1C` [Example F2, 2-[4,6-Bis-(4-hydroxy-piperidin-1-yl)-pyrimidin-2-ylamino]-4-methyl-thiazole-5-carboxylic Acid Ethyl Ester], the “selective for PDE7 over PDE4” value is on record as “greater than 50 fold”.
